Binding of CDR-mutated scFvs to a peptide of the spike HR2 region

Binding partner: SARS-CoV-2 spike HR2 peptide, sequence PDVDLGDISGINAS.

Each scFv is VL, the linker GGGGSGGGGSGGGGS, VH, as in the parent Ab-91, and differs from it in the CDRs of the heavy chain only.
VL: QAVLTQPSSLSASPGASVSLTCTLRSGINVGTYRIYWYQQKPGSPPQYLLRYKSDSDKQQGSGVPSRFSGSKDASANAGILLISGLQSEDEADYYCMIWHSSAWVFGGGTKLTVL
VH: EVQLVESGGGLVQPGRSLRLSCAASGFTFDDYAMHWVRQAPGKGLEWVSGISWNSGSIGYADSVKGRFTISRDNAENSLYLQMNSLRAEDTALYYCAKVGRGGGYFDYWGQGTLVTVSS

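The library (AAYL51) carries one to three amino acid substitutions per variant, with no insertions or deletions. In AlphaSeq, yeast of one mating type display the scFv and yeast of the other type display the target. Binding brings cells together so that they mate, and sequencing counts the barcode pairs among the diploids. A regression on co-assayed BCL2-family reference pairs converts the normalised counts of each replicate to an apparent Kd. The assay was run in three technical replicates.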

Positions count from residue 1 of the parent VH; F27I puts I in place of F. Affinities are written as log10 Kd with Kd in nM; a lower number is a better binder. A pair that was not seen in that replicate is written "nd"; this usually means weak binding, but a binder can also be missed. Background: pairings of library AAYL51 with three empty control strains gave a value in 21% of cases (median 4.54, 5th percentile 3.26). Values in that range, when seen in few replicates, are hard to tell from nonspecific mating. Also given: how often the same scFv was detected with the empty control strains, with their mean in brackets.

| # | changes | log10 Kd (nM) by replicate | signal with controls |
|---|---|---|---|
| 1 | F27I+S57I+K65T | nd nd 3.00 | 0 of 9 |
| 2 | I51Y+G102E+G104P | 4.05 nd nd | 3 of 9 (3.94) |
| 3 | S52T+F106K+D107C | nd nd nd | 0 of 9 |
| 4 | M34I+S52R+G59S | nd nd nd | 2 of 9 (3.63) |
| 5 | F29W+Y32A+K65R | 4.97 5.06 5.77 | 8 of 9 (4.54) |
| 6 | M34R+K65V+F106I | 4.79 nd nd | 2 of 9 (4.04) |
| 7 | G26C+S55T+G102T | 3.77 6.04 nd | 1 of 9 (4.69) |
| 8 | A61Y+G100T | 5.73 6.10 nd | 2 of 9 (4.54) |
| 9 | I51E+N54M+G100K | nd nd nd | 0 of 9 |
| 10 | M34V+D62T+G103R | nd nd nd | 0 of 9 |
| 11 | G50Q+S52Y+K65D | 4.93 4.61 5.71 | 3 of 9 (4.94) |
| 12 | G56M+S57I+S63F | nd 3.38 nd | 0 of 9 |
| 13 | T28L+I51V+V99T | nd nd nd | 0 of 9 |
| 14 | W53K+S63F+Y108S | nd nd nd | 0 of 9 |
| 15 | G50F+Y60L+G104H | 4.40 5.81 4.95 | 7 of 9 (5.15) |
| 16 | G26D+A33H+K65M | 4.90 5.96 4.81 | 7 of 9 (5.04) |
| 17 | N54T+Y60L+A61S | nd nd nd | 1 of 9 (4.66) |
| 18 | I58F+G100I+G104P | 1.79 2.00 1.67 | 5 of 9 (5.12) |
| 19 | W53A+D62K+R101M | nd nd nd | 2 of 9 (3.81) |
| 20 | I51A+S55K+G104W | nd nd nd | 2 of 9 (4.07) |
| 21 | F27P+Y60P+V99T | 4.63 5.30 3.94 | 6 of 9 (4.72) |
| 22 | I58K+Y60M+V64K | 4.49 nd nd | 2 of 9 (4.47) |
| 23 | W53S+G102M+G104H | nd nd nd | 0 of 9 |
| 24 | G26W+F29N+F106C | nd 3.89 nd | 1 of 9 (2.46) |
| 25 | D30F+S57C | 3.96 4.08 5.20 | 4 of 9 (4.32) |
| 26 | Y32L+D62N | 4.70 4.82 nd | 2 of 9 (4.99) |
| 27 | T28E+G56C+V64G | 5.57 nd 5.23 | 5 of 9 (3.93) |
| 28 | F29L+H35L+G100H | nd nd nd | 0 of 9 |
| 29 | G59L+V99N+G103H | nd nd nd | 0 of 9 |
| 30 | D30K+S63A | 0.36 0.33 -0.50 | 1 of 9 (4.48) |
| 31 | G56E+A61I+F106D | 1.83 1.67 1.81 | 1 of 9 (3.82) |
| 32 | G26E+F27W | nd 5.84 nd | 5 of 9 (5.26) |
| 33 | F27W+D62N+Y108L | 1.62 1.65 1.18 | 2 of 9 (3.78) |
| 34 | N54F+I58C+A61F | nd nd nd | 0 of 9 |

Excerpt, the first 4 entries:

{"changes": "F27I+S57I+K65T", "log10 Kd (nM) by replicate": "nd nd 3.00", "signal with controls": "0 of 9"}
{"changes": "I51Y+G102E+G104P", "log10 Kd (nM) by replicate": "4.05 nd nd", "signal with controls": "3 of 9 (3.94)"}
{"changes": "S52T+F106K+D107C", "log10 Kd (nM) by replicate": "nd nd nd", "signal with controls": "0 of 9"}
{"changes": "M34I+S52R+G59S", "log10 Kd (nM) by replicate": "nd nd nd", "signal with controls": "2 of 9 (3.63)"}

From the AlphaSeq antibody data of Engelhart et al. 2022 (doi:10.1038/s41597-022-01779-4), copy in the FLAb collection.